The list shows a part of the results, in another mix than the full data. Active and inactive are the calls of the source.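 Rule for the calls: active = viability at or under a set limit, the compound median less 4 SD (cut at about 6% in these data); inactive = the rest.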

The assay in a line: primary screen for suppressors of beta-catenin knockout HCT116 cell growth, colon tumor, human (AID 818).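 Note: 0% = Hyamine 1622 control at 20 µM and 100% = untreated cell control.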 Particulars: CellTiter-Glo, 60 h, at 10 µM, hits give low values.
Turning to `c1ccc(CN2CCC(Nc3ccccc3)CC2)cc1`, the viability (as a rule, a read-out of living cells in per cent, often relative to untreated cells) was inactive: 90.3%.

In the case of `N/C(=N\O)c1c(N)no[n+]1[O-]`, the viability was inactive: 92.5%.

Consider `O=C(OC1CN2CCC1CC2)C1c2ccccc2C=Cc2ccccc21` (stereo not drawn), for which the viability is inactive: 65.6%.

Turning to `CCOc1ncccc1C(=O)NCC1(N2CCOCC2)CCCCC1`, the viability is inactive: 91.4%.

Regarding `CCC(CO)(C(=O)OC1CN2CCC1CC2)c1ccccc1` (stereo not drawn), the viability is inactive: 103%.

For the molecule `Fc1ccccc1NC1CCN(Cc2ccccc2)CC1`, the viability is inactive: 80%.

Consider `CCN1CCC(Nc2cccc(F)c2)CC1`, for which the viability is inactive: 100%.

With `COc1ccc(NC2CCN(CCc3ccccc3)CC2)c(OC)c1`, the viability was inactive: 89.1%.

As to `O=C(NCC1(N2CCOCC2)CCCCC1)c1cc2ccccc2o1`, the viability was inactive: 94.1%.

Turning to `O=C(OC1CN2CCC1CC2)C1c2ccccc2Oc2ccccc21` (stereo not drawn), the viability is inactive: 102%.

As to `N#CC1(Nc2ccccc2)CCN(CCc2ccccc2)CC1`, the viability was inactive: 96.8%.

As for `O=C(NCC1(N2CCOCC2)CCCCC1)c1cc(=O)[nH]c2ccccc12`, the viability was inactive: 80.1%.

On to `CN1CCN(CCOC(=O)C(O)(c2ccccc2)c2ccccc2)CC1`, for which the viability was inactive: 105%.
